# Measured values as given in publication PMC11274511, “Synthesis of Substituted 1,2,4-Triazole-3-Thione Nucleosides Using E. coli Purine Nucleoside Phosphorylase” (Biomolecules, 2024).
# Test system: HSV-1/L2(TK+)
# Conditions: Strain HSV-1/L2(TK+)
# Procedure: Herpes simplex virus type 1 (HSV-1) strain L2 was obtained from the State’s collection of viruses at FSBI «N. F. Gamaleya National Research Centre for Epidemiology and Microbiology, Russian Ministry of Health, Russia» («D. I. Ivanovsky Institute of Virology» subdivision).
# Antiviral activity in vitro was measured by the method of the cytopathic effect (CPE) inhibition assay. In 96-well plastic plates with the 24 h generated cell monolayer, 2-fold serial dilutions of the compounds were prepared. Cells infected with MOI of 0.1 PFU/cell were incubated at 37 °C in 5% CO2 atmosphere. […] Antiviral activity was assessed by determining of IC50 and IC95.
# Three controls were used: (1) Toxicity control. Uninfected cells were incubated in the presence of the drug in the same concentration range as in the experiment. (2) Virus control. […] (3) Cell control. Uninfected cell cultures were incubated in the maintenance medium, which contained no drug.
smiles,measurement,value
"NC(=O)c1ncn([C@@H]2O[C@H](CO)[C@@H](O)[C@H]2O)n1 [Ribavirin, reference compound]",SI (ratio of CC50 to IC50),>4
